Biological target: T1, E. coli glutamine synthetase (Escherichia coli, UniProt P0A9C5)
T1 construct: purchased Millipore-Sigma
T1 sequence (P0A9C5 2-469 limits assumed): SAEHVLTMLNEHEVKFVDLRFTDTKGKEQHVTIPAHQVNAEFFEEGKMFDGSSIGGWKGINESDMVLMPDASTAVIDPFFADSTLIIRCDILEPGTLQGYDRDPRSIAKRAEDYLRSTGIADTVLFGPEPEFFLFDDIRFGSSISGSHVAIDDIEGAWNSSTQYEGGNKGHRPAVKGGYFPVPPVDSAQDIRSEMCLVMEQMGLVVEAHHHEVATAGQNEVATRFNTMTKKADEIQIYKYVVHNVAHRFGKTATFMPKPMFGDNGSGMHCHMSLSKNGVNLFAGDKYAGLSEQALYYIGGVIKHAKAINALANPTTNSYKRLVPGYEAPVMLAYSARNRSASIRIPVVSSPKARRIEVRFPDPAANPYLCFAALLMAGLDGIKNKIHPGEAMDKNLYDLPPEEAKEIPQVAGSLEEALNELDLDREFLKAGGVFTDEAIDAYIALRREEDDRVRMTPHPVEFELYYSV
Experiment: Assay of Glutamine Synthetase (GS) Inhibition, coupled assay
Format: biochemical
Conditions: GS from E. coli, L-glutamate 5-50 mM, 0.5 or 2.0 μM AST, 37° C.
Method: Assay of Glutamine Synthetase (GS) Inhibition. Inhibition of GS activity by bAST, sAST or D,L-AST was analyzed by a coupled assay using GS from E. coli (Millipore-Sigma), as described previously, with minor modifications. Briefly, the GS reaction was initiated by addition of L-glutamate (5, 10, 20 or 50 mM) to the reaction mixture (100 mM Tris-acetate (pH 8.6), 9 mM ATP, 1 mM phosphoenolpyruvate, 60 mM Mg2Cl, 19 mM KCl, 45 mM NH4Cl, 0.25 mM NADH, 13-20 units of L-lactic dehydrogenase, 8-14 units of pyruvate kinase and 1 unit of GS) and incubated at 37° C. in the absence or presence of 0.5 or 2.0 μM of bAST, sAST or D,L-AST, and the decrease in A340 nm was monitored to quantify oxidation of NADH to NAD^+ using an extinction coefficient 6230 M^−1cm^−1. Activities were corrected with the values from control assays without enzyme. The inhibition constant (Ki) for each AST was determined based on the apparent Km of GS using Sigma Plot (Systat Software, Inc., Sun Jose, Calif.).

SMILES	Ki (listed as L-bAST)	Ki (listed as D/L-sAST)
C[As](=O)(O)CCC(N)C(=O)O (centres unmarked) [bAST]	300 ± 100 nM	–
C[As](=O)(O)CCC(N)C(=O)O (centres unmarked) [sAST]	–	650 ± 200 nM
